Test results: ChEMBL document CHEMBL3351654, “Synthesis, biological evaluation, and 3D QSAR study of 2-methyl-4-oxo-3-oxetanylcarbamic acid esters as N-acylethanolamine acid amidase (NAAA) inhibitors” (J Med Chem, 2014)

Molecular target: T1, N-acylethanolamine-hydrolyzing acid amidase (Rattus norvegicus, UniProt Q5KTC7)
T1 sequence (Q5KTC7 whole entry): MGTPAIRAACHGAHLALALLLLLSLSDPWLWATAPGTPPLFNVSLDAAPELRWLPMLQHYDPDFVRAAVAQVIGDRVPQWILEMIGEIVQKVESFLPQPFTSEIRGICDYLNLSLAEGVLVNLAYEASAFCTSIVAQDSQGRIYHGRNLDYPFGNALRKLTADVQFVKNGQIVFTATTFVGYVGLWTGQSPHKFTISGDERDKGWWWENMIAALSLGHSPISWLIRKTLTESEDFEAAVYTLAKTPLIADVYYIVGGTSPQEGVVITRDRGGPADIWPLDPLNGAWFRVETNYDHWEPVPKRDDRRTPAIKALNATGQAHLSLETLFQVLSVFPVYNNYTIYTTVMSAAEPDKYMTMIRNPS
Assay: Inhibition of NAAA in Sprague-Dawley rat lung assessed as inhibition of hydrolysis of 10-cis-heptadecenoylethanolamide by UPLC/MS method
Outline: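 Native NAAA enzyme prepared from rat lungs, not a recombinant construct. The substrate, 10-cis-heptadecenoylethanolamide, is an unnatural fatty acid ethanolamide. Inhibition of its hydrolysis was measured, and the median inhibitory concentration (IC50) was reported.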

Row | IC50 | SMILES
1 | 5.42 µM | C[C@@H]1OC(=O)[C@@H]1NC(=O)OC1CCCCC1
2 | 3.43 µM | C[C@@H]1OC(=O)[C@@H]1NC(=O)OCC(C)(C)CCc1ccccc1
